Test system: NG4TL4-WT tumor
Experiment: Biodistribution study in tumor-bearing mice
Type: in vivo
Conditions: 1 h; 80~90 μCi tail vein; FVB/N mice with NG4TL4-WT tumor
Excerpt: […] Tumor and 13 other tissures (blood, heart, lung, liver, stomach, small intestine, large intestine, spleen, pancreas, kidney, bone, marrow, and muscle) were removed, rinsed, weighed, and determined for radioactivity with a γ scintilation counter. Uptake of the radioactive trancers in the tissues (counts per min) was calibrated against decay, normalizedto sample weight, and expressed as percentages of injected dosage per gram of tissue (% ID/g) and aggregation ratio of tumor to blood.

Biodistribution Stomach: 6.18 ± 1.51 % ID/g
Compound: O=c1[nH]c(=O)n([C@H]2C[C@H](O)[C@@H](CO)O2)cc1[131I] [^131I-IUdR, 5-[^124/131I]iodo-2′-deoxyuridine]

— patent US20140221639A1, “RADIOLABELED NUCLEOSIDE ANALOGUE, AND PREPARATION METHOD AND USE THEREOF” (Institute of Nuclear Energy Research Atomic Energy Council, …, priority 2011, published 2014)
